Reference: patent publication US20250188420A1, “MATURING AGENT HAVING BOTH OF ALK5 INHIBITORY ACTIVITY AND CDK8/19 INHIBITORY ACTIVITY” (ORIZURU THERAPEUTICS, INC., priority 2022, published 2025)

By UniProt entry, the sequences of proteins in these tests, tags left out. Residues count along the entry.
UniProt P36896, 24-505, species assumed: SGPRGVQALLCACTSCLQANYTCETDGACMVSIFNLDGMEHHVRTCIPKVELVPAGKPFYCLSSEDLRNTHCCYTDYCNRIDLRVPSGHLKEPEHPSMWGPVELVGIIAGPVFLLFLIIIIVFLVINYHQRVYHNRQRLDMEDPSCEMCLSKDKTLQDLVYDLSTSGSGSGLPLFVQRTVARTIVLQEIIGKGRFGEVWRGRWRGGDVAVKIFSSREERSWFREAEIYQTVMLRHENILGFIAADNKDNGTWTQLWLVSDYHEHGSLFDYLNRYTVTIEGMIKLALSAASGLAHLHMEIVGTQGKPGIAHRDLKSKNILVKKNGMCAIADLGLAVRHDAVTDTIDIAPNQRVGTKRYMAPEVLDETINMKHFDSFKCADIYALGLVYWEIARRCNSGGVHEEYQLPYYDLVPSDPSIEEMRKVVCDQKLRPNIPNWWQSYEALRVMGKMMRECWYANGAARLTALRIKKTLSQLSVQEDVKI

Biological target: ALK4 (Homo sapiens, UniProt P36896)
Assay: biochemical

Which IC50 does the source give for `Cc1cccc(-c2n[nH]cc2-c2ccc3ncccc3n2)n1` [ALK5iII, 2-(3-(6-methylpyridin-2-yl)-1H-pyrazol-4-yl)-1,5-naphthyridine] here?
The IC50 was < 10 nM.
